Broadly, the inhibition is the change of the read-out against control, counted positive when it falls.

The results in this text go back to PubChem BioAssay AID588475 (Sanford-Burnham Center for Chemical Genomics, 2011).

The list shows a part of the results, in another mix than the full data. Active and inactive are the calls of the source.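 Rule for the calls: active = inhibition of the ligand-induced calcium signal above about 50% at the single tested concentration (limit read from the data); inactive = the rest.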

This assay is described as follows: blockers of CRF-evoked CRF-R2/CRF-BP calcium response – cell-based, HEK293, calcium dye fluorescence, uHTS, primary screen (AID 588475). The conditions noted are these: CRF-induced calcium fluorescence, at 11.8 µM, active compounds read high.
For the molecule `Cc1ccc(NP(=O)(Oc2ccccc2F)Oc2ccccc2F)nc1`, the inhibition is inactive: -18%. Take `CN(C(=O)Cc1ccc(Cl)c(Cl)c1)[C@H]1CCCC[C@@H]1N1CCCC1`: the inhibition is inactive: 4.3%. For the molecule `CCOP(=O)(Nc1ccccc1)OCC`, the inhibition is inactive: 1.13%. For the molecule `Cc1cc(SC(NC(=O)c2ccc(F)cc2)C(Cl)(Cl)Cl)ncn1` (stereo not given), the inhibition is inactive: -7.23%.

Consider `CCCC1OP(N)(=O)OCC1CC` (stereo not given), for which the inhibition was inactive: -5.22%. As for `O=C(O)c1ccccc1[As](=O)(O)O`, the figure is inactive: 0.16%; as for `CC(=O)Nc1ccc([As](=O)(O)O)cc1`, inactive: 0.56%; as for `CN(C)P(=O)(N(C)C)n1c(Nc2ccccc2)nnc1-c1ccccc1`, inactive: -5.69%.

Take `O=P(Nc1nc2ccc(Cl)cc2s1)(c1ccccc1)c1ccccc1`: the inhibition is inactive: 7.44%. As for `CCN(N=Nc1nonc1N)c1nonc1N`, the figure is inactive: 6.05%; as for `Nc1cccc2ccc([As](=O)(O)O)cc12`, inactive: -2.54%; as for `Cc1ccc(OP(=O)(Nc2nccs2)Oc2ccc(C)cc2)cc1`, inactive: 1.21%.

Take `COc1ccccc1OP(=O)(Nc1ccc(C)cn1)Oc1ccccc1OC`: the inhibition was inactive: -12.2%. As to `Clc1ccc(Cl)c(NC2=NCC(CBr)S2)c1` (stereo not given), the inhibition was inactive: 17.2%. Consider `CN1CCCC(OC(=O)C(c2ccccc2)c2ccccc2)C1` (stereo not given), for which the inhibition is inactive: 3.02%. For the molecule `NC(=O)c1cc([N+](=O)[O-])cc([N+](=O)[O-])c1N`, the inhibition was inactive: 21.6%. Regarding `Cc1ccc(N/C(=N/P(=O)(N2CCOCC2)N2CCOCC2)N2CCOCC2)cc1`, the inhibition is inactive: -0.15%.

In the case of `CN(C(=O)Cc1ccc(Cl)c(Cl)c1)[C@H]1CCCC[C@H]1N1CCCC1`, the inhibition was inactive: -9.51%. Turning to `CC(C)CC(=O)NC(Sc1ccc(Cl)cc1)C(Cl)(Cl)Cl` (stereo not given), the inhibition was inactive: 15.3%. As for `Nc1cc(N)c2nonc2c1[N+](=O)[O-]`, the inhibition was inactive: -7.87%. Regarding `O=C(NC(Sc1ccncn1)C(Cl)(Cl)Cl)c1ccccc1` (stereo not given), the inhibition is inactive: 6.51%. On to `Oc1ccccc1CNc1ccccn1`, for which the inhibition is inactive: -0.7%. As for `O=[N+]([O-])c1cccc2n[nH]nc12`, the inhibition was inactive: 27.4%.

Regarding `CC(=O)N1C2C3N(C(C)=O)C1C1N(C(C)=O)C(C(N1C(C)=O)N3C(C)=O)N2C(C)=O`, the inhibition is inactive: -5.38%. Consider `CCc1nc2c(n1)c1c(non1O)c1c2no[n+]1[O-]`, for which the inhibition is inactive: -17.4%. In the case of `O=[N+]([O-])c1cc([N+](=O)[O-])c(CCNc2ccccc2)c([N+](=O)[O-])c1`, the inhibition is inactive: 4.76%.

As to `Cc1ccc(NP(=O)(Oc2ccccc2)Oc2ccccc2)nc1`, the inhibition was inactive: -16.4%. Take `COc1ccc(C2=NCC(CBr)S2)cc1` (stereo not given): the inhibition was inactive: -2.64%. As for `CN(C)C(=O)OCCc1n(C)cc[n+]1C`, the figure is inactive: -4.3%; as for `CC(C)=N/N=C(\N)N[N+](=O)[O-]`, inactive: -2.61%; as for `CC(C)c1nc(Nc2ccccc2)n(P(=O)(N(C)C)N(C)C)n1`, inactive: -1.07%.

Regarding `c1cc(-c2nn[nH]n2)ccc1-c1nn[nH]n1`, the inhibition was inactive: 19.5%. With `CC1CCN(C(=O)Oc2c(Cl)cc(Cl)c3cccnc23)CC1`, the inhibition is inactive: -3.01%. Next, `C[N+]1=C2C=CC=CC=C2SC12C([N+](=O)[O-])=CC([N+](=O)[O-])=C[C-]2[N+](=O)[O-]` (stereo not given): inactive: -5.42%; `Nc1ccc([As](=O)(O)c2ccc(N)cc2)cc1`: inactive: 10.1%; `CCN(/C(=N/P(=O)(N1CCOCC1)N1CCOCC1)N1CCOCC1)c1ccc(OC)cc1`: inactive: 4.93%. Regarding `O=C(Nc1cc([As](=O)(O)O)ccc1O)c1ccccc1`, the inhibition is inactive: -18.6%. As for `O=P1(N(CCCl)CCCl)OCCCS1` (stereo not given), the figure is inactive: 6.91%; as for `O=[N+]([O-])c1cccc(NC2=NCC(CBr)S2)c1` (stereo not given), inactive: 43.9%; as for `COC(=O)C1(C)COP(=O)(Nc2ccccc2)OC1` (stereo not given), inactive: 41.6%. For `O=C(O)CNc1ccc([As](=O)(O)O)cc1`, the inhibition was inactive: 9.59%. Take `CC(C)(C)C(=O)NC(Sc1ccncn1)C(Cl)(Cl)Cl` (stereo not given): the inhibition is inactive: 20%. Regarding `O=[N+]([O-])c1ncn(CCn2ncnc2[N+](=O)[O-])n1`, the inhibition is inactive: -2.03%. As for `C[C@H]1OP(=O)(Oc2ccccc2)[C@H](O)[C@H](O)[C@H]1N=[N+]=[N-]` (stereo not given in full), the inhibition is inactive: -4.35%.

For `O=P(Nc1nc2ccccc2s1)(c1ccccc1)c1ccccc1`, the inhibition was inactive: 2.15%. In the case of `COc1ccc(N)c([N+](=O)[O-])c1[N+](=O)[O-]`, the inhibition was inactive: 5.51%.

With `O=P(Nc1ccccn1)(c1ccc(Br)cc1)c1ccc(Br)cc1`, the inhibition is inactive: -27%. On to `CN(C)C1(CNC(=O)c2ccc(Cl)c(S(N)(=O)=O)c2)CCCCC1`, for which the inhibition was inactive: -10.6%.

On to `Nc1ccc([As](=O)(O)c2ccc([N+](=O)[O-])cc2)cc1`, for which the inhibition was inactive: 15.5%. With `C(Cc1nn[nH]n1)Cc1nn[nH]n1`, the inhibition was inactive: 20.5%. As for `O=C(OC1CN2CCC1CC2)c1cccc(Cl)c1` (stereo not given), the inhibition is inactive: -6.85%.

On to `O=[N+]([O-])c1ccc(O)c(/C=N/Nc2ccc([N+](=O)[O-])cc2[N+](=O)[O-])c1`, for which the inhibition was active: 52.8%. Turning to `O=[N+]([O-])c1ncn(CCn2cnc([N+](=O)[O-])n2)n1`, the inhibition was inactive: 5.94%.

For `CC(=O)NC(SC(=S)N(C)C)C(Cl)(Cl)Cl` (stereo not given), the inhibition is inactive: -21.4%.

Regarding `O=[As](O)(c1ccccc1)c1ccc(O)cc1`, the inhibition is inactive: 12.4%. On to `c1nnnn1CCn1cnnn1`, for which the inhibition was inactive: -12%. Consider `CC(C)C(=O)NC(Sc1ccccc1)C(Cl)(Cl)Cl` (stereo not given), for which the inhibition is inactive: -4.36%. Consider `O=P(Nc1nccs1)(c1ccccc1)c1ccccc1`, for which the inhibition is inactive: -10.1%. On to `CCc1cc(O)c([N+](=O)[O-])c(C)c1[N+](=O)[O-]`, for which the inhibition is inactive: 18.5%. Turning to `CC(C)(C)C(=O)NC(Sc1ccccc1)C(Cl)(Cl)Cl` (stereo not given), the inhibition was inactive: -2.99%. Regarding `CCOc1ccc(C2=NCC(CBr)S2)cc1` (stereo not given), the inhibition is inactive: 6.25%.

In the case of `O=P1(Nc2nc3ccc(Cl)cc3s2)COc2ccccc2O1` (stereo not given), the inhibition was inactive: 8.38%. As for `CC(=O)Nc1ccc(Oc2c([N+](=O)[O-])cc([N+](=O)[O-])cc2[N+](=O)[O-])cc1`, the figure is inactive: 27.4%. As to `CC(=O)Nc1ccc([As](=O)(O)O)c(O)c1`, the inhibition is inactive: -1.14%. Next, `COC(=O)C1(C)COP(=O)(NCc2ccccc2)OC1` (stereo not given): inactive: 31.1%; `N#C/C(=C\c1ccc(N(CCBr)CCBr)cc1)C(N)=O`: inactive: -5.47%; `CC(=O)c1ccc(N2CC2c2ccncc2)cc1` (stereo not given): inactive: 7.13%. `C[C@@H]1C=CCP(=O)(Oc2ccccc2)O1` (stereo not given in full): the inhibition was inactive: 14.1%. `C[C@H]1OP(=O)(Oc2ccccc2)C[C@@H]2O[C@@H]21` (stereo not given in full): the inhibition was inactive: -3%. For the molecule `Cc1ccccc1CN(C)C(=O)COC(=O)C(O)(c1ccccc1)c1ccccc1`, the inhibition was inactive: -26.3%. In the case of `O=P1(N(CCCl)CCCl)OCCC2CCCCN21` (stereo not given), the inhibition is inactive: -18.6%. Regarding `CCNC(=S)/N=C(\N)N[N+](=O)[O-]`, the inhibition is inactive: 19.9%.

As to `O=C(NC1CCS(=O)(=O)C1)NP(=S)(Oc1ccccc1)Oc1ccccc1` (stereo not given), the inhibition was inactive: 1.47%. Consider `Cc1ccc(NP(=O)(Oc2cccc(C)c2)Oc2cccc(C)c2)nc1`, for which the inhibition is inactive: -3.79%.

Regarding `c1ccc(-c2nn[nH]n2)c(-c2nn[nH]n2)c1`, the inhibition was inactive: -0.92%. As for `CN(C)C(=O)Oc1noc2ccccc12`, the figure is inactive: -5.25%; as for `O=c1c2cc([N+](=O)[O-])ccc2[nH]c2c([N+](=O)[O-])cc([N+](=O)[O-])cc12`, active: 118%. Take `Cc1ccccc1OP(=O)(Nc1ccccn1)Oc1ccccc1C`: the inhibition is inactive: -33.2%.

For the molecule `CC(NC(=O)COC(=O)C(O)(c1ccccc1)c1ccccc1)c1ccccc1` (stereo not given), the inhibition was inactive: 16.5%. `Cc1ccc(OP(=O)(Nc2ccccn2)Oc2ccc(C)cc2)cc1`: the inhibition was inactive: -35.7%.

In the case of `CC(=O)NC(SC(=S)N(CC(C)C)CC(C)C)C(Cl)(Cl)Cl` (stereo not given), the inhibition is inactive: 11.5%. For the molecule `COC(=O)c1cc2c(s1)N=C(c1ccccc1)N(C)P2(=O)N1CCOCC1` (stereo not given), the inhibition was inactive: -18.4%.

Regarding `CCC(=O)N1C2C3N(C(=O)CC)C1C1N(C(=O)CC)C(C(N1C(=O)CC)N3C(=O)CC)N2C(=O)CC`, the inhibition was inactive: 7.12%. As for `O=C(OC1CN2CCC1CC2)c1ccccc1` (stereo not given), the inhibition is inactive: 0.71%. With `Nc1ccccc1[As](=O)(O)c1ccccc1`, the inhibition was inactive: 2.57%. As to `O=C(O)COc1ccc([As](=O)(O)O)cc1[N+](=O)[O-]`, the inhibition was inactive: -16.3%.

Consider `CS(=O)(=O)c1cc([N+](=O)[O-])c2no[n+]([O-])c2c1`, for which the inhibition is inactive: -9.54%. Turning to `O=P(Nc1nccs1)(c1ccccc1)c1nc2ccccc2s1` (stereo not given), the inhibition is inactive: 5.94%. With `O=P(Nc1nccs1)(Oc1ccccc1)Oc1ccccc1`, the inhibition was inactive: -10.3%. In the case of `CCOP1(=S)c2c(C)nn(CCC#N)c2N=C(c2ccccc2F)N1C` (stereo not given), the inhibition is inactive: -5.57%. As to `CN(C(=O)Cc1ccc(Cl)c(Cl)c1)[C@H]1CC[C@@]2(CCCO2)C[C@@H]1N1CCCC1`, the inhibition was inactive: 4.8%. Consider `CN(C)C(=O)c1cc([N+](=O)[O-])cc2c1-c1c(cc([N+](=O)[O-])cc1[N+](=O)[O-])C2=O`, for which the inhibition is inactive: 24.3%. Regarding `O=[N+]([O-])c1ccc2c(c1)nnn2O`, the inhibition was inactive: 0.62%.

On to `CN(C(=O)Cc1ccccc1)[C@@H]1CC[C@]2(CCCO2)C[C@H]1N1CCCC1`, for which the inhibition was inactive: -64.2%. Turning to `CCOP1(=S)c2c(C)nn(CCC#N)c2N=C(c2ccc(F)cc2)N1C` (stereo not given), the inhibition was inactive: 2.61%. For the molecule `N#CCCN(C(=O)COC(=O)C(O)(c1ccccc1)c1ccccc1)c1ccc(F)cc1`, the inhibition is inactive: 4.24%. In the case of `NC(=O)Nc1ccc([As](=O)(O)O)cc1`, the inhibition was inactive: 3.82%. For the molecule `O=[As](O)(c1cccc(O)c1)c1cccc(O)c1`, the inhibition was inactive: 5.63%. Regarding `Cc1cccc(OCC(=O)OC2CN3CCC2CC3)c1` (stereo not given), the inhibition is inactive: 8.88%. As for `CS(=O)(=O)c1ccc(Cl)c(NC(=O)COC(=O)C(O)(c2ccccc2)c2ccccc2)c1`, the inhibition is inactive: 23.3%.
